Data on 1 molecule can be found in US20100261711A1, “SELECTIVE ANTICONVULSANT AGENTS AND THEIR USES” (WiSys Technology Foundation, priority 2009, published 2010).

Common to all, as to experiment: Competitive binding assay, [3H]flunitrazepam
Assay [1] has as its target T1, GABAA/α1 (α1β3γ2 GABAA receptors) (Homo sapiens, UniProt P14867+P18507).
T1 construct: expressed in transfected cells
The note with it: Binding Affinity at GABAA/α1, αxβ3γ2, [3H]flunitrazepam competition.

The target in assay [2] is T2, GABAA/α2 (α2β3γ2 GABAA receptors) (Homo sapiens, UniProt P18507+P47869).
T2 construct: expressed in transfected cells
The note with it: Binding Affinity at GABAA/α2, αxβ3γ2, [3H]flunitrazepam competition.

The target of assay [3] is T3, GABAA/α3 (α3β3γ2 GABAA receptors) (Homo sapiens, UniProt P18507+P34903).
T3 construct: expressed in transfected cells
The following applies: Binding Affinity at GABAA/α3, αxβ3γ2, [3H]flunitrazepam competition.

In assay [4] the target is T4, GABAA/α5 (α5β3γ2 GABAA receptors) (Homo sapiens, UniProt P18507+P31644).
T4 construct: expressed in transfected cells
The following applies: Binding Affinity at GABAA/α5, αxβ3γ2, [3H]flunitrazepam competition.

Values joined by “and” are separate entries in the source; they are usually repeats but may differ in a detail not shown here. Equal entries are not always repeated.

As to `C#Cc1ccc2c(c1)C(c1ccccc1F)=NC(C)c1c(C(=O)OCC)ncn1-2` (single isomer, unassigned) [SH-053-2′F-S-CH3, 8-Ethynyl-6-(2-fluorophenyl)-4-methyl-4H-2,5,10b-triazabenzo[e]azulene-3-carboxylic acid ethyl ester], the Ki was 350 nM in assay [1]; 141 nM in assay [2]; 1240 nM in assay [3]; 16 nM and 19.2 nM in assay [4].
